Results: ChEMBL document CHEMBL2069301, “Exploration of the structure-activity relationship of the diaryl anilide class of ligands for translocator protein--potential novel positron emitting tomography imaging agents” (Bioorg Med Chem Lett, 2012)

Columns and labels:
[1] = tested on: Striatum; experiment: Ratio of biodistribution in olfactory bulbs to striatum of in naive Wistar rat at 1 to 3 MBq, iv using [18F] labeled compound measured 30 mins post dose; assay type: ADME, organism-based; settings: in vivo, 0.5 h
[2] = tested on: Striatum; experiment: Ratio of biodistribution in striatum at 2 mins post dose to biodistribution in striatum post 30 mins in naive Wistar rat at 1 to 3 MBq, iv using [18F] labeled compound; assay type: ADME, organism-based; settings: in vivo

`COc1ccc(OC)c(CN(C(=O)C[18F])c2ccccc2Oc2ccccc2)c1` was tested, and the Ratio [1] was 3.5 and the Ratio [2] was 4.64.
